Experimental data published in US12570617B2 (Kyungpook National University Industry-Academic Cooperation …, priority 2020, dated 2026).

Test system: cancer cachexia mouse model
Test: Cancer cachexia mouse model (CT26): grip test, Rota-rod test, cancer size, body weight, feed intake, fat and muscle weight
Assay type: in vivo
Details: cancer cachexia mice, oral 10 mg/kg once daily from 9th day, tested 18th day, vs Vehicle
Procedure: Cultured 1×10^6 cells were subcutaneously injected into the right side of the abdomen of 10-week-old mice. The size of the cancer grown in the right abdomen, body weight, and feed intake were measured once every time after cell injection, and 10 mg/kg of a triazole compound was orally administered daily from the 9th day. On the 18th day of cancer cell injection, each of the grip test and Rota-rod test for evaluating the muscle function was performed for 1 day. On the 20th day, subcutaneous fat, visceral fat and muscle (femur, calf) of the mouse were separated and weighed.
For the evaluation of muscle function, the grip test was performed by holding the mouse by having the mouse hold the metal grid attached to the grip strength meter, holding the tail of the mouse, and pulling it from behind horizontally. The force applied to the metal grid immediately before losing the grip was recorded in the measuring instrument as the maximum tension in g, and the entire process was performed 9 times per subject to record the average value. In the Rota-rod test (Ugo Basile, Comerio, VA, Italy), Rota-rod exercise was performed at least three times at a rotational speed of 4 rpm by using a machine equipped with a rod with the diameter of 3 cm appropriately processed to provide grip to measure the endurance time of the tested animals in seconds and record the average value. […]

In the case of CCCCCCCCCn1cc(C(N)(CO)CO)nn1 [KARI201, 2-amino-2-(1-nonyl-1H-1,2,3-triazol-4-yl)propane-1,3-diol], the “muscle strength function (Grip test and Rota-rod test)” value is reported as “significantly improved”.
